Data as given in ChEMBL document CHEMBL5126608, “Development, Optimization, and In Vivo Validation of New Imidazopyridine Chemotypes as Dual TLR7/TLR9 Antagonists through Activity-Directed Sequential Incorporation of Relevant Structural Subunits” (J Med Chem, 2022).

Assays:
Format in all cases: cell-based
Design in all cases: scale not given: the % may be the effect or the level left
[1] = biological target: T1, Toll-like receptor 7 (Homo sapiens) (UniProt Q9NYK1); test: Antagonist activity at human TLR7 expressed in HEK-blue hTLR7 cells assessed as inhibition of CL264-induced NFkappaB activation at 40 uM preincubated with compound for 1 hrs followed by CL264 addition and measured next day by SEAP-based spectrophotometry assay
T1 sequence (whole entry): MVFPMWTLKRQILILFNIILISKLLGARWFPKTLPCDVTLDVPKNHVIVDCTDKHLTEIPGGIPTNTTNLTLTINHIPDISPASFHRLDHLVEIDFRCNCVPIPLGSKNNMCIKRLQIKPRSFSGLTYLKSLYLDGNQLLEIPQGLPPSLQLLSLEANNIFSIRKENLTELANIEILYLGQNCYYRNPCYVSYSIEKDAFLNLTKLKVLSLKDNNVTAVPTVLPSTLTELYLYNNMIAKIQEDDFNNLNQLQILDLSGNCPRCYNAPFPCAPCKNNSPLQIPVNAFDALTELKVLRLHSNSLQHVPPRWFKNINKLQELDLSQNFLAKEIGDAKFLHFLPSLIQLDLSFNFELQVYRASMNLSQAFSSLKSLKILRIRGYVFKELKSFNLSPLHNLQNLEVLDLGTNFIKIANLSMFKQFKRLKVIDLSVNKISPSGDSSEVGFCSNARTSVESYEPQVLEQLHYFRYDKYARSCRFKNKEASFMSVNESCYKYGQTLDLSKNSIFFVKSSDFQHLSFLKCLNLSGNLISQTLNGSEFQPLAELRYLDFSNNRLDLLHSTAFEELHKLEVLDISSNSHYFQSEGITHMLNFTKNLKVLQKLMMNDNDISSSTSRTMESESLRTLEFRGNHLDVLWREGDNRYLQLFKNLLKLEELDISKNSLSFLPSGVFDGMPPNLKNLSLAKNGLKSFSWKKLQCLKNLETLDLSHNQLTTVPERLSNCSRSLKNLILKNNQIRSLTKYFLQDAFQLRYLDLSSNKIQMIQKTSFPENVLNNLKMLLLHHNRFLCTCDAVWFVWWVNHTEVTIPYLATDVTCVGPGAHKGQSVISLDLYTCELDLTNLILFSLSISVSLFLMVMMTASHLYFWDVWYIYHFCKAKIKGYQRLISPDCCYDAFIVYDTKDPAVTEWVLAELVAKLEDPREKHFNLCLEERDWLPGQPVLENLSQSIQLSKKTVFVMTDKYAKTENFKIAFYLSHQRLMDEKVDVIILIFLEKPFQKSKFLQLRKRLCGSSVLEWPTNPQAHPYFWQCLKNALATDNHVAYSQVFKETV

[2] = biological target: T1, Toll-like receptor 7 (Homo sapiens); test: Antagonist activity at human TLR7 expressed in HEK-blue hTLR7 cells assessed as inhibition of CL264-induced NFkappaB activation at 30 uM preincubated with compound for 1 hrs followed by CL264 addition and measured next day by SEAP-based spectrophotometry assay
[3] = biological target: T2, Toll-like receptor 8 (Homo sapiens) (UniProt Q9NR97); test: Antagonist activity at human TLR8 expressed in HEK-blue hTLR8 cells assessed as inhibition of CL075-induced NFkappaB activation at 20 uM preincubated with compound for 1 hrs followed by CL075 addition and measured next day by SEAP-based spectrophotometry assay
T2 sequence (whole entry): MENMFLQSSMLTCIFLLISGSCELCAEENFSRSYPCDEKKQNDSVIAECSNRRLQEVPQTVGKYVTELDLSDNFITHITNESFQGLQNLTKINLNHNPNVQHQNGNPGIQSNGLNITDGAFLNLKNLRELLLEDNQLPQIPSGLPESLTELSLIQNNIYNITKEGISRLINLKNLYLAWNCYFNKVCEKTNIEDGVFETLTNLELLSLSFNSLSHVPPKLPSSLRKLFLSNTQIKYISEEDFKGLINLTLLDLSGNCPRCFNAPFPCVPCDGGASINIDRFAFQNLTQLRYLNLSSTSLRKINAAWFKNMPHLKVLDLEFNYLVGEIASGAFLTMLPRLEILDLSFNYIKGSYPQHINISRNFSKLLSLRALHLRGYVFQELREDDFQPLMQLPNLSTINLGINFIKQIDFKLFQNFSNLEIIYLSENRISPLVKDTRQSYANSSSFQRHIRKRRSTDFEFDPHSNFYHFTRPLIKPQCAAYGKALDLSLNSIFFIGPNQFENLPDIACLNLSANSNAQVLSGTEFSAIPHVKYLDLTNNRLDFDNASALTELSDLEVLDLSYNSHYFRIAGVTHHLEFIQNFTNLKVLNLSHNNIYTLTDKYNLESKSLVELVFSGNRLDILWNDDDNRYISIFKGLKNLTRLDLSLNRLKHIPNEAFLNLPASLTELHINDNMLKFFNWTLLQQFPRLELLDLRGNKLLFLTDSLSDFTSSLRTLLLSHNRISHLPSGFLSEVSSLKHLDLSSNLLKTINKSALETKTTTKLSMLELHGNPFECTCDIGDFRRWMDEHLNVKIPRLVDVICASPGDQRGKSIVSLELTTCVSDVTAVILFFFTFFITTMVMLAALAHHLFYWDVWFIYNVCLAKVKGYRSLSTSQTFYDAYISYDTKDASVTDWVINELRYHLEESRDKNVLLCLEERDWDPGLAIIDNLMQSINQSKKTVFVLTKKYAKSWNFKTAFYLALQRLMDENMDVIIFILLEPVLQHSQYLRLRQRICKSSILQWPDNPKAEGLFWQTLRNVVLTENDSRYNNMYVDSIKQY

[4] = biological target: T1, Toll-like receptor 7 (Homo sapiens); test: Antagonist activity at human TLR7 expressed in HEK-blue hTLR7 cells assessed as inhibition of CL264-induced NFkappaB activation at 20 uM preincubated with compound for 1 hrs followed by CL264 addition and measured next day by SEAP-based spectrophotometry assay

Activity [3] | SMILES | also measured
< 20% | COc1ccc(-c2nc3cc(N4CCN(C(C)C)CC4)ccn3c2CN2CCCC2)c(OC)c1 | 
< 20% | COc1ccc(-c2cn3ccc(N4CCN(C5CCCC5)CC4)cc3n2)c(OC)c1 | 
35% | COc1ccc(-c2cn3ccc(N4CCN(C5CCCC5)CC4)cc3n2)c(OCCCN2CCCC2)c1 | 
< 20% | COc1ccc(-c2nc3cc(N4CCN(C5CCCC5)CC4)ccn3c2CN2CCCC2)c(OC)c1 | 

More lines, now with the values behind:

SMILES | Activity [3] | also measured
COc1ccc(-c2cn3ccccc3n2)cc1 |  | Activity [1]: 37%
COc1ccc(-c2nc3ccccn3c2N)c(OC)c1 |  | Activity ([2]; filed as antagonist): 40%
COc1ccc(-c2nc3cc(N4CCN(C5CCCC5)CC4)ccn3c2CN2CCOCC2)c(OC)c1 | < 20% | 
COc1ccc(-c2nc3cc(N4CCN(C5CCCC5)CC4)ccn3c2CN2CCCC2)c(OCc2ccccc2)c1 |  | Activity [4]: 15%
COc1ccc(-c2cn3ccc(N4CCNCC4)cc3n2)c(OCCCN2CCCC2)c1 | < 20% | 
COc1ccc(-c2nc3ccccn3c2N)cc1 |  | Activity [2]: 36%
COc1ccc(-c2cn3ccc(N4CCN(C(C)C)CC4)cc3n2)cc1 | < 20% | 
COc1ccc(-c2cn3ccccc3n2)c(OC)c1 |  | Activity ([1]; filed as antagonist): 42%
COc1ccc(-c2nc3cc(N4CCN(C5CCCC5)CC4)ccn3c2NC2CCCCC2)c(OC)c1 | < 20% | 
